Usually EC50 stands for the midpoint of the concentration-response curve. Low readings indicate higher potency in that assay, high ones lower potency in that assay.

The structures appear in SMILES notation. Residue numbers refer to the chain shown, from its start.

These results are taken from paper PMC3162021, “Molecular Sites for the Positive Allosteric Modulation of Glycine Receptors by Endocannabinoids” (PLoS ONE, 2011).

Common to all, as to test: whole-cell voltage clamp, concentration-response
What all share (format): cell-based

Assay [1] addresses T1, α1 GlyR (Rattus norvegicus, UniProt P07727, G282A).
T1 construct: gene Glra1; homomeric α1, expressed in HEK 293 cells from pCI or pcDNA3; A52, I240, G254, S296, K385 (mature numbering); K385 fits the form without the 8-residue loop insert
T1 sequence (P07727 29-449 isoform P07727-2 G282A): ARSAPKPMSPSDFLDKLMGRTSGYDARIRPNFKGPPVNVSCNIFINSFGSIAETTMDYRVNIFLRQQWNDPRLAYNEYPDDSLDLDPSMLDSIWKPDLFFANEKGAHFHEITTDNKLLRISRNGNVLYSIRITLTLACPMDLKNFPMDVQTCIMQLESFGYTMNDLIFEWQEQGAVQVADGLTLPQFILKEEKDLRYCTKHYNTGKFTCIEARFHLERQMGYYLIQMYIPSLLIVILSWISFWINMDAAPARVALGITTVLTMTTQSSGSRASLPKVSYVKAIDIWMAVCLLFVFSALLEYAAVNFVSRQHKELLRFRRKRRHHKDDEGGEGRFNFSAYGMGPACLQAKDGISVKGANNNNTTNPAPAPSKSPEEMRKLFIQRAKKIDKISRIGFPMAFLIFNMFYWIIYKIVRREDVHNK
The source says:
(§1) whole-cell voltage clamp, concentration-response on α1 GlyR

In assay [2] the target is T2, α1 GlyR (Rattus norvegicus, UniProt P07727).
T2 construct: gene Glra1; homomeric α1, expressed in HEK 293 cells from pCI or pcDNA3; A52, I240, G254, S296, K385 (mature numbering); K385 fits the form without the 8-residue loop insert
T2 sequence (P07727 29-449 isoform P07727-2): T1 sequence (P07727 29-449 isoform P07727-2 G282A) with A254G
Excerpt: as §1

The target in assay [3] is T3, α1 GlyR (Rattus norvegicus, UniProt P07727, A80T/G282A/S324A).
T3 construct: gene Glra1; homomeric α1, expressed in HEK 293 cells from pCI or pcDNA3; A52, I240, G254, S296, K385 (mature numbering); K385 fits the form without the 8-residue loop insert
T3 sequence (P07727 29-449 isoform P07727-2 A80T/G282A/S324A): T1 sequence (P07727 29-449 isoform P07727-2 G282A) with A52T, S296A
Excerpt: as §1

Assay [4] deals with T4, α1 GlyR (Rattus norvegicus, UniProt P07727, S324A).
T4 construct: gene Glra1; homomeric α1, expressed in HEK 293 cells from pCI or pcDNA3; A52, I240, G254, S296, K385 (mature numbering); K385 fits the form without the 8-residue loop insert
T4 sequence (P07727 29-449 isoform P07727-2 S324A): T1 sequence (P07727 29-449 isoform P07727-2 G282A) with A254G, S296A
Excerpt: as §1

Assay [5] concerns the target T5, α1 GlyR (Rattus norvegicus, UniProt P07727, G282A/I268V).
T5 construct: gene Glra1; homomeric α1, expressed in HEK 293 cells from pCI or pcDNA3; A52, I240, G254, S296, K385 (mature numbering); K385 fits the form without the 8-residue loop insert
T5 sequence (P07727 29-449 isoform P07727-2 I268V/G282A): T1 sequence (P07727 29-449 isoform P07727-2 G282A) with I240V
Excerpt: as §1

Assay [6] addresses T6, α1 GlyR (Rattus norvegicus, UniProt P07727, A80T).
T6 construct: gene Glra1; homomeric α1, expressed in HEK 293 cells from pCI or pcDNA3; A52, I240, G254, S296, K385 (mature numbering); K385 fits the form without the 8-residue loop insert
T6 sequence (P07727 29-449 isoform P07727-2 A80T): T1 sequence (P07727 29-449 isoform P07727-2 G282A) with A52T, A254G
Excerpt: as §1

Assay [7] addresses T7, α1 GlyR (Rattus norvegicus, UniProt P07727, K421A).
T7 construct: gene Glra1; homomeric α1, expressed in HEK 293 cells from pCI or pcDNA3; A52, I240, G254, S296, K385 (mature numbering); K385 fits the form without the 8-residue loop insert
T7 sequence (P07727 29-449 isoform P07727-2 K413A): T1 sequence (P07727 29-449 isoform P07727-2 G282A) with A254G, K385A
Excerpt: as §1

The target in assay [8] is T8, α1 GlyR (Rattus norvegicus, UniProt P07727, G282A/I268V/S324A).
T8 construct: gene Glra1; homomeric α1, expressed in HEK 293 cells from pCI or pcDNA3; A52, I240, G254, S296, K385 (mature numbering); K385 fits the form without the 8-residue loop insert
T8 sequence (P07727 29-449 isoform P07727-2 I268V/G282A/S324A): T1 sequence (P07727 29-449 isoform P07727-2 G282A) with I240V, S296A
Excerpt: as §1

Assay [9] concerns the target T9, α1 GlyR (Rattus norvegicus, UniProt P07727, I268V).
T9 construct: gene Glra1; homomeric α1, expressed in HEK 293 cells from pCI or pcDNA3; A52, I240, G254, S296, K385 (mature numbering); K385 fits the form without the 8-residue loop insert
T9 sequence (P07727 29-449 isoform P07727-2 I268V): T1 sequence (P07727 29-449 isoform P07727-2 G282A) with I240V, A254G
Excerpt: as §1

In assay [10] the target is T10, α1 GlyR (Rattus norvegicus, UniProt P07727, G282A/S324A).
T10 construct: gene Glra1; homomeric α1, expressed in HEK 293 cells from pCI or pcDNA3; A52, I240, G254, S296, K385 (mature numbering); K385 fits the form without the 8-residue loop insert
T10 sequence (P07727 29-449 isoform P07727-2 G282A/S324A): T1 sequence (P07727 29-449 isoform P07727-2 G282A) with S296A
Excerpt: as §1

`NCC(=O)O` [glycine]: the EC50 at α1 GlyR [1] turned out to be 43 ± 1 µM; on α1 GlyR [2] it was 68 ± 1 µM; on α1 GlyR [3], 103 ± 4 µM; at α1 GlyR [4], 84 ± 1 µM; on α1 GlyR [5] it was 32 ± 2 µM; at α1 GlyR [6] it was 195 ± 4 µM. Besides, the EC50 at α1 GlyR [7] was found to be 43 ± 3 µM; on α1 GlyR [8], 37 ± 1 µM; at α1 GlyR [9] it was 63 ± 1 µM; on α1 GlyR [10], 73 ± 3 µM.
